Measurements published in US20190336490A1, “COMPOSITIONS AND METHODS FOR INCREASING REMYELINATION” (Frequency Therapeutics, Inc., priority 2018, published 2019).

System: oligodendrocyte lineage cells in lysolecithin focal demyelinated lesion
Conditions: 10 mg/kg once daily i.p., 7 days starting 3 days post lesion; relative to vehicle treated mice

CN1CCC[C@@H]1CCO[C@](C)(c1ccccc1)c1ccc(Cl)cc1 [Clemastine]
percentage of mature oligodendrocytes: increases
